Results as given in US7880025B2, “Ruthenium silyl-arene complex , and method for production thereof” (Takasago International Corporation, priority 2009, dated 2011).

Test: Solubility of [RuCl2(arene)]2 complexes in 100 ml of solvent at 25° C. in various solvents

## [RuCl2(4-(triisopropylsilyl)toluene)]2 [TIPS-tol]
  solubility in 100 ml of solvent, Acetone: 0.8 g/100 ml
  solubility in 100 ml of solvent, Chloroform: 56.5 g/100 ml
  solubility in 100 ml of solvent, Methanol: 2.4 g/100 ml
  solubility in 100 ml of solvent, THF: 1.9 g/100 ml
  solubility in 100 ml of solvent, Toluene: 1.5 g/100 ml

## [RuCl2(4-(trimethylsilyl)toluene)]2 [TMS-tol]
  solubility in 100 ml of solvent, Acetone: 1.0 g/100 ml
  solubility in 100 ml of solvent, Chloroform: 31.3 g/100 ml
  solubility in 100 ml of solvent, Methanol: 3.7 g/100 ml
  solubility in 100 ml of solvent, THF: 2.3 g/100 ml
  solubility in 100 ml of solvent, Toluene: 1.4 g/100 ml
